These are literature values, as cited in US10968216B2 (priority 2016, dated 2021).

The data set concerns acute promyelocytic leukemia (APL). The note with it: human, in vivo; cited from earlier work.

Consider ATRA, for which the overall survival rates result is given as “over 70%”.
